Only a part is listed here, and it is no random draw.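 The test compound was applied at a single concentration to cells in 96-well plates for 48 hours, and percent growth was recorded.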 The source made the active and inactive calls. How the source made its calls: active means growth percent below 10; inactive means the rest.
Experiments:
Assay in all cases: NCI-60 one-dose screen, 48 h (100 = growth as untreated, 0 = no growth, -100 = all killed)
Conditions in all cases: 10 µM
DU-145 prostate = test system: DU-145 prostate
K-562 leukemia = test system: K-562 leukemia
MALME-3M melanoma = test system: MALME-3M melanoma
MDA-MB-231 breast = test system: MDA-MB-231 breast
RXF 393 renal = test system: RXF 393 renal
SF-268 CNS = test system: SF-268 CNS
SF-295 CNS = test system: SF-295 CNS
SF-539 CNS = test system: SF-539 CNS
UACC-257 melanoma = test system: UACC-257 melanoma
M14 melanoma = test system: M14 melanoma
HCT-15 colon = test system: HCT-15 colon
HT29 colon = test system: HT29 colon
SNB-75 CNS = test system: SNB-75 CNS
SNB-19 CNS = test system: SNB-19 CNS
U251 CNS = test system: U251 CNS
PC-3 prostate = test system: PC-3 prostate
SK-MEL-5 melanoma = test system: SK-MEL-5 melanoma
UACC-62 melanoma = test system: UACC-62 melanoma
LOX IMVI melanoma = test system: LOX IMVI melanoma
SK-MEL-28 melanoma = test system: SK-MEL-28 melanoma

Row | SMILES | growth (DU-145 prostate) | growth (K-562 leukemia) | growth (MALME-3M melanoma) | growth (MDA-MB-231 breast) | growth (RXF 393 renal) | growth (SF-268 CNS) | growth (SF-295 CNS) | growth (SF-539 CNS) | growth (UACC-257 melanoma) | growth (M14 melanoma) | growth (HCT-15 colon) | growth (HT29 colon) | growth (SNB-75 CNS) | growth (SNB-19 CNS) | growth (U251 CNS) | growth (PC-3 prostate) | growth (SK-MEL-5 melanoma) | growth (UACC-62 melanoma) | growth (LOX IMVI melanoma) | growth (SK-MEL-28 melanoma)
1 | O=C1CCN(Cc2ccccc2)CC1 | inactive: 106% | inactive: 91.4% | inactive: 106% | inactive: 95.4% | inactive: 114% | inactive: 105% | inactive: 107% | inactive: 110% | inactive: 105% | inactive: 103% | inactive: 112% | inactive: 104% | inactive: 97.8% | inactive: 98.7% | inactive: 101% | inactive: 87% | inactive: 99.8% | inactive: 99.7% | inactive: 98.9% | inactive: 118%
2 | N#CC(C#N)=Cc1ccc(N(CCCl)CCCl)cc1 | inactive: 68.1% | inactive: 75.9% | inactive: 93.3% | inactive: 97.4% | inactive: 82.7% | inactive: 78.1% | inactive: 86.8% | inactive: 76.1% | inactive: 87.1% | inactive: 87.1% | inactive: 84.4% | inactive: 87.1% | inactive: 86.3% | inactive: 99.1% | inactive: 81.4% | inactive: 71.3% | inactive: 92.3% | inactive: 59.5% | inactive: 84.8% | inactive: 108%
3 | Cn1c(=O)[nH]cc(N(CCCl)CCCl)c1=O | inactive: 97.2% | inactive: 86.7% | inactive: 130% | inactive: 85.7% | inactive: 100% | inactive: 71.9% | inactive: 96.1% | inactive: 80.3% | inactive: 90.6% | inactive: 101% | inactive: 89.6% | inactive: 91.1% | inactive: 86.3% | inactive: 101% | inactive: 73.2% | inactive: 91.9% | inactive: 97.5% | inactive: 86.9% | inactive: 67% | inactive: 108%
4 | O=CC(O)C(O)C(O)C(O)CN(CCCl)CCCl (stereo not given) | inactive: 110% | inactive: 104% | inactive: 95.7% | inactive: 108% | inactive: 102% | inactive: 100% | inactive: 101% | inactive: 92.2% | inactive: 93.7% | inactive: 98.9% | inactive: 99.8% | inactive: 113% | inactive: 94.4% | inactive: 100% | inactive: 95.5% | inactive: 89.5% | inactive: 98.1% | inactive: 96% | inactive: 93.4% | inactive: 106%
5 | O=C1CCN(CCc2ccccc2)CC1 | inactive: 132% | inactive: 116% | inactive: 99.1% | inactive: 100% | inactive: 98.2% | inactive: 120% | inactive: 102% | inactive: 94.9% | inactive: 101% | inactive: 67.8% | inactive: 100% | inactive: 105% | inactive: 88.8% | inactive: 80.3% | inactive: 98.7% | inactive: 98% | inactive: 99.5% | inactive: 89.2% | inactive: 105% | inactive: 101%
6 | Oc1ccc(O)c(CN(CCCl)CCCl)c1 | inactive: 108% | inactive: 96.4% | inactive: 94.5% | inactive: 98.6% | inactive: 114% | inactive: 94.5% | inactive: 102% | inactive: 94.2% | inactive: 128% | inactive: 103% | inactive: 98.1% | inactive: 90% | inactive: 92.9% | inactive: 106% | inactive: 107% | inactive: 95.7% | inactive: 108% | inactive: 88.6% | inactive: 89.4% | inactive: 117%
7 | Cc1ccc(NC2(C(N)=O)CCN(Cc3ccccc3)CC2)cc1 | inactive: 117% | inactive: 105% | inactive: 104% | inactive: 102% | inactive: 102% | inactive: 106% | inactive: 97.3% | inactive: 114% | inactive: 103% | inactive: 105% | inactive: 111% | inactive: 100% | inactive: 87% | inactive: 103% | inactive: 99.4% | inactive: 90.8% | inactive: 99.5% | inactive: 97.2% | inactive: 98.7% | inactive: 109%
8 | COc1c(C)cc(N(CCCl)CCCl)c2ccccc12 | inactive: 38% | inactive: 63.2% | inactive: 65.7% | inactive: 105% | inactive: 58.7% | inactive: 47.1% | inactive: 11.2% | inactive: 10.4% | inactive: 62.7% | inactive: 46.5% | inactive: 70% | inactive: 65.3% | inactive: 60.2% | inactive: 59.6% | inactive: 34.8% | inactive: 64.9% | inactive: 77.7% | inactive: 63.9% | inactive: 38.4% | inactive: 86.4%
9 | CC(C)(C)C(=O)CBr | inactive: 106% | inactive: 96.7% | inactive: 101% | inactive: 104% | inactive: 104% | inactive: 100% | inactive: 102% | inactive: 101% | inactive: 104% | inactive: 99.3% | inactive: 110% | inactive: 110% | inactive: 100% | inactive: 103% | inactive: 99.8% | inactive: 96.8% | inactive: 101% | inactive: 109% | inactive: 57.6% | inactive: 113%
10 | BrCCN(CCBr)c1ccc2c(c1)Cc1ccccc1-2 | active: 1.16% | inactive: 38.3% | inactive: 45% | inactive: 78.1% | inactive: 30.9% | inactive: 18.7% | active: 8.74% | inactive: 16.3% | inactive: 67.9% | inactive: 18.8% | inactive: 50.3% | inactive: 47.5% | inactive: 32.9% | inactive: 41% | inactive: 22.5% | inactive: 46.4% | inactive: 41.5% | inactive: 42.4% | inactive: 16.4% | inactive: 78.7%
11 | CCOC(=O)N1CCC(=O)CC1 | inactive: 106% | inactive: 97.6% | inactive: 107% | inactive: 107% | inactive: 100% | inactive: 103% | inactive: 96.8% | inactive: 98.2% | inactive: 92.1% | inactive: 109% | inactive: 97.1% | inactive: 102% | inactive: 99.2% | inactive: 94.9% | inactive: 97.4% | inactive: 95.6% | inactive: 102% | inactive: 96.1% | inactive: 96.3% | inactive: 102%
12 | NC(=O)C1(Nc2ccccc2)CCN(Cc2ccccc2)CC1 | inactive: 118% | inactive: 109% | inactive: 108% | inactive: 104% | inactive: 117% | inactive: 114% | inactive: 105% | inactive: 104% | inactive: 108% | inactive: 95.9% | inactive: 105% | inactive: 108% | inactive: 86.2% | inactive: 107% | inactive: 109% | inactive: 94.4% | inactive: 98.2% | inactive: 103% | inactive: 101% | inactive: 108%
13 | N#CC1(Nc2ccccc2)CCN(Cc2ccccc2)CC1 | inactive: 109% | inactive: 162% | inactive: 228% | inactive: 99% | inactive: 100% | inactive: 99.5% | inactive: 92.7% | inactive: 93.9% | inactive: 106% | inactive: 92.3% | inactive: 104% | inactive: 106% | inactive: 76.2% | inactive: 90.8% | inactive: 103% | inactive: 98.5% | inactive: 104% | inactive: 86.8% | inactive: 99.2% | inactive: 131%
14 | CCCSP(=O)(CCl)N(CCCl)CCCl (stereo not given) | inactive: 108% | inactive: 104% | inactive: 106% | inactive: 107% | inactive: 103% | inactive: 105% | inactive: 103% | inactive: 90% | inactive: 83% | inactive: 100% | inactive: 93.4% | inactive: 97.6% | inactive: 77.6% | inactive: 98.4% | inactive: 95.1% | inactive: 91% | inactive: 99.3% | inactive: 105% | inactive: 102% | inactive: 103%
15 | N#CC1(Nc2ccc(Cl)cc2)CCN(Cc2ccccc2)CC1 | inactive: 90.9% | inactive: 31.5% | inactive: 95.1% | inactive: 41.6% | inactive: 98.8% | inactive: 73.8% | inactive: 39.6% | inactive: 77.9% | inactive: 77.1% | inactive: 23.2% | inactive: 45.9% | inactive: 86.9% | inactive: 81.7% | inactive: 85.6% | inactive: 74.9% | inactive: 65.2% | inactive: 36.2% | active: -0.519% | inactive: 18% | inactive: 84.7%
16 | O=P1(N(CCCl)CCCl)SCCCS1 | inactive: 116% | inactive: 119% | inactive: 142% | inactive: 109% | inactive: 126% | inactive: 101% | inactive: 109% | inactive: 137% | inactive: 104% | inactive: 114% | inactive: 108% | inactive: 116% | inactive: 91.9% | inactive: 113% | inactive: 99.9% | inactive: 113% | inactive: 107% | inactive: 109% | inactive: 97.8% | inactive: 110%
